Test results as given in PubChem BioAssay AID602440 (Sanford-Burnham Center for Chemical Genomics, 2012).
The list shows a part of the results, in another mix than the full data. Activity calls are given as the source filed them. Cut-off read from the data, not from the text of the source: active = inhibition mostly above about 40% (no sharp cut-off); inactive = mostly below about 27%.

Chains of the proteins cited; added tags and fusions are not shown.
UniProt Q96LD8, whole entry: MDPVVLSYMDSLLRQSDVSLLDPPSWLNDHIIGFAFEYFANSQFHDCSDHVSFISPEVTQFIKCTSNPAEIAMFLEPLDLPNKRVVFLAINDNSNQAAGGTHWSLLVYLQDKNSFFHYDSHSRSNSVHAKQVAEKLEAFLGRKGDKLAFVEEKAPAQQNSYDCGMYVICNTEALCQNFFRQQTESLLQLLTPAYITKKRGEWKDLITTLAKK

Biological target: Sentrin-specific protease 8 (Homo sapiens) (UniProt Q96LD8)
Test: blockers of SENP8 deneddylase activity – biochemical, fluorescence, Nedd8 protein substrate, uHTS, primary screen (AID 602440)
Conditions: recombinant SENP8, Nedd8 substrate fluorescence; at 20 µM; active compounds read high

Row | SMILES | inhibition
1 | CCN(CC)CCCNc1ccccc1[N+](=O)[O-].O=[N+]([O-])c1cc([N+](=O)[O-])c(O)c([N+](=O)[O-])c1 | inactive: 26.6%
2 | CCOC(=O)c1ccc(NP(C)(=O)Oc2ccc(F)cc2)cc1 (configuration not stated) | inactive: 12.8%
3 | COc1ccc(OP(C)(=O)Nc2ccc(SC(F)(F)F)cc2)cc1 (configuration not stated) | inactive: 6.6%
4 | Cc1c([N+](=O)[O-])cc([N+](=O)[O-])c(Br)c1[N+](=O)[O-] | inactive: 29.7%
5 | CCN(CC)CCCOC(=O)C(O)(c1ccccc1)C1CCCCC1 (configuration not stated) | inactive: 14.2%
6 | CP(=O)(Nc1ccccc1)Oc1ccc(F)cc1 (configuration not stated) | inactive: 5.8%
7 | CCCCCOc1ccc(NP(C)(=O)Oc2ccc(Cl)cc2Cl)cc1 (configuration not stated) | inactive: 9.7%
8 | O=[N+]([O-])c1cc([N+](=O)[O-])c(OC2CCCCC2O)c([N+](=O)[O-])c1 (configuration not stated) | inactive: 9.3%
9 | O=[N+]([O-])c1cc([N+](=O)[O-])c(Nc2ccc(Cl)cc2)c([N+](=O)[O-])c1 | active: 53%
10 | CP(=O)(Nc1ccccc1F)Oc1ccccc1 (configuration not stated) | inactive: 6.6%
11 | CC(C)c1ccc(OP(C)(=O)Nc2ccc(SC(F)(F)F)cc2)cc1 (configuration not stated) | inactive: 7.9%
12 | O=C(OC1CN2CCC1CC2)c1ccc([N+](=O)[O-])cc1 (configuration not stated) | inactive: 17.9%
13 | O=C(OCCN1CCN(CCOCc2ccccc2)CC1)C(O)(c1ccccc1)c1ccccc1 | inactive: 14.9%
14 | CP(=O)(Nc1ccc(SC(F)(F)F)cc1)Oc1ccc(F)cc1 (configuration not stated) | inactive: 12.7%
15 | CCOP(C)(=S)SCC(=O)NC(C)(CC)C(=O)O (configuration not stated) | inactive: 27%
16 | CP(=O)(Nc1ccc2c(c1)OCCO2)Oc1ccccc1 (configuration not stated) | inactive: 22.2%
17 | Cc1ccccc1NP(C)(=O)Nc1ccccc1C | inactive: 19.1%
18 | O=[N+]([O-])c1cc([N+](=O)[O-])c(C(F)(F)F)c([N+](=O)[O-])c1O | inactive: 24.5%
19 | COc1ccc(OP(C)(=O)Nc2cccc(Br)c2)cc1 (configuration not stated) | inactive: 13.7%
20 | CN(C)CCOC(=O)C(O)(c1ccccc1)C1CCCCC1 (configuration not stated) | inactive: 17.1%
21 | COc1ccc(NP(C)(=O)Oc2ccccc2OC)cc1 (configuration not stated) | inactive: -2.6%
22 | O=[N+]([O-])c1ccc(OP2(=O)COCCO2)cc1 (configuration not stated) | inactive: 9.1%
23 | Cc1cc(-c2cccc3ccccc23)c(C)cn1.O=[N+]([O-])c1cc([N+](=O)[O-])c(O)c([N+](=O)[O-])c1 | inactive: 13.2%
24 | O=[N+]([O-])c1cc([N+](=O)[O-])c(NCC2CCS(=O)(=O)C2)c([N+](=O)[O-])c1 (configuration not stated) | inactive: 33.1%
25 | Cc1c(C(c2ccc3c(c2)OCO3)c2c(C)n(C)n(-c3ccccc3)c2=O)c(=O)n(-c2ccccc2)n1C.O=[N+]([O-])c1cc([N+](=O)[O-])c(O)c([N+](=O)[O-])c1 | inactive: 13.7%

Row | SMILES | inhibition
26 | CCOC(=O)c1ccc(NP(C)(=O)Oc2ccc(Cl)cc2)cc1 (configuration not stated) | inactive: 12.6%
27 | CP(=O)(OC12CC3CC(CC(C3)C1)C2)OC12CC3CC(CC(C3)C1)C2 | inactive: -1.7%
28 | CCN(CC)CC(O)COC(=O)C(O)(c1ccccc1)C1CCCCC1 (configuration not stated) | inactive: 1.5%
29 | COc1ccc(OP(C)(=O)Nc2ccc(Br)cc2)cc1 (configuration not stated) | inactive: 15.2%
30 | COc1ccccc1OP(C)(=O)Nc1c(C)n(C)n(-c2ccccc2)c1=O (configuration not stated) | inactive: 21.2%
31 | O=C(OCCCN1CCCC1)C(O)(c1ccccc1)C1CCCCC1 (configuration not stated) | inactive: 4.9%
32 | CP(=O)(Oc1ccccc1)N1CCOC1=O (configuration not stated) | inactive: 12%
33 | CCc1ccc(OP(C)(=O)Nc2cccnc2)cc1 (configuration not stated) | inactive: 7.5%
34 | CC(C)(C)c1ccc(OP(C)(=O)O)cc1 | inactive: 8.8%
35 | COc1ccccc1OP(C)(=O)Nc1ccccc1Br (configuration not stated) | inactive: 8.8%
36 | CP(=O)(Nc1ccc(Cl)cc1)Oc1ccc(F)cc1 (configuration not stated) | inactive: 10.1%
37 | CN(C)C(=O)c1c([N+](=O)[O-])cc([N+](=O)[O-])cc1[N+](=O)[O-] | active: 44.9%
38 | COc1ccccc1OP(C)(=O)Nc1ccc(Br)cc1 (configuration not stated) | inactive: 23.4%
39 | COc1ccc(OP(C)(=O)Nc2ccccn2)cc1 (configuration not stated) | inactive: 12.2%
40 | CN(C)CCOC(=O)C(O)(c1ccccc1)C1CCCC1 (configuration not stated) | inactive: 10.2%
41 | O=[N+]([O-])c1cc([N+](=O)[O-])c(Nc2ccccn2)c([N+](=O)[O-])c1 | active: 46%
42 | Cc1c(NP(C)(=O)Oc2ccc(C(C)C)cc2)c(=O)n(-c2ccccc2)n1C (configuration not stated) | inactive: 24.1%
43 | CP(=O)(Nc1ccccn1)Oc1ccccc1 (configuration not stated) | inactive: 6.9%
44 | COc1ccccc1OP(C)(=O)Nc1ccc(C)cc1C (configuration not stated) | inactive: 33.1%
45 | CCc1ccc(OP(C)(=O)O)cc1 | inactive: 10.1%
46 | O=C1C(O)=C([N+](=O)[O-])C(=O)C(O)=C1[N+](=O)[O-] | inactive: -1.4%
47 | Cc1cc(C)cc(OP(C)(=O)Nc2cccc(C(F)(F)F)c2)c1 (configuration not stated) | inactive: 7.6%
48 | COc1ccccc1OP(C)(=O)Nc1ccc(C)c(C)c1 (configuration not stated) | inactive: 12.2%
49 | COc1ccc(OP(C)(=O)Nc2ccccc2Br)cc1 (configuration not stated) | inactive: -2.4%
50 | CP(=O)(OCCOc1ccccc1)OCCOc1ccccc1 | inactive: -1.5%

Row | SMILES | inhibition
51 | CCCCCCCCCCCCCCCC1C[N+](C)(C)CCOP(C)(=O)O1 (configuration not stated) | inactive: 11.5%
52 | CP(=O)(Nc1ccc(Cl)cc1Cl)Oc1ccccc1 (configuration not stated) | inactive: -6.6%
53 | O=[N+]([O-])c1cc([N+](=O)[O-])c(Nc2cccnc2)c([N+](=O)[O-])c1 | active: 52.6%
54 | O=[N+]([O-])c1ccc2c(c1)C=Nc1ccccc1O2 | inactive: 15.6%
55 | CC(C)(C)c1ccc(OP(C)(=O)Nc2ccc(SC(F)(F)F)cc2)cc1 (configuration not stated) | inactive: 10.9%
56 | Cc1cccc(C)c1OP(C)(N)=O (configuration not stated) | inactive: 39.4%
57 | COc1ccccc1OP(C)(=O)Nc1ccc(C)cc1 (configuration not stated) | inactive: 24%
58 | Cc1ccc(NP(C)(=O)Oc2ccccc2)c(C)c1 (configuration not stated) | inactive: 28.3%
59 | CCOC(=O)c1ccc(NP(C)(=O)Oc2ccccc2)cc1 (configuration not stated) | inactive: 5.3%
60 | Cc1cc(C)cc(OP(C)(N)=O)c1 (configuration not stated) | inactive: 16.4%
61 | COc1ccccc1OP(C)(=O)Nc1cc(Cl)ccc1C (configuration not stated) | inactive: 8.1%
62 | COc1ccc(OP(C)(=O)Nc2cccc(F)c2)cc1 (configuration not stated) | inactive: 10.6%
63 | CCN(CC)CCCOC(=O)C(O)(c1ccccc1)c1ccccc1 | inactive: 9.9%
64 | COc1ccccc1-c1ccccn1.O=[N+]([O-])c1cc([N+](=O)[O-])c(O)c([N+](=O)[O-])c1 | inactive: 15%
65 | CP(=O)(Nc1ccc(SC(F)(F)F)cc1)Oc1ccc(Cl)cc1 (configuration not stated) | inactive: 9.9%
66 | Cc1ccc(Nc2c([N+](=O)[O-])cc([N+](=O)[O-])cc2[N+](=O)[O-])cc1 | active: 48.9%
67 | Cc1cccc(C)c1OP(C)(=O)Nc1ccc(SC(F)(F)F)cc1 (configuration not stated) | inactive: 12.9%
68 | CP(=O)(Oc1ccccc1)OC(c1ccccc1)C(F)(F)F (configuration not stated) | inactive: 4.8%
69 | CCc1ccc(OP(C)(=O)N2CCN(c3ccc([N+](=O)[O-])cc3)CC2)cc1 (configuration not stated) | active: 43.3%
70 | CP(=O)(NC(=O)Nc1ccccc1)Oc1ccccc1 (configuration not stated) | inactive: 7.7%
71 | Cc1cc(C)cc(OP(C)(=O)Nc2ccc(SC(F)(F)F)cc2)c1 (configuration not stated) | inactive: 6.4%
72 | O=[N+]([O-])c1cc([N+](=O)[O-])c(O)c([N+](=O)[O-])c1.c1ccc(Oc2ccncc2)cc1 | inactive: 28%
73 | CCOC(=O)c1ccc(NP(C)(=O)Oc2ccc(OC)cc2)cc1 (configuration not stated) | inactive: 9.9%
74 | CCOP(C)(=S)SCC(=O)NC(C)C(=O)O (configuration not stated) | inactive: 13%
75 | CP(=O)(Nc1ccccn1)Oc1ccc(Cl)cc1 (configuration not stated) | inactive: 6%

Row | SMILES | inhibition
76 | CP(=S)(Nn1cnnc1)Oc1ccccc1 (configuration not stated) | inactive: 16.7%
77 | CP(=O)(Nc1ccccc1Br)Oc1ccccc1 (configuration not stated) | inactive: 11.7%
78 | COc1ccccc1OP(C)(=O)Nc1ccccc1 (configuration not stated) | inactive: -2.2%
79 | O=[N+]([O-])c1cc([N+](=O)[O-])c(Nc2nnnn2CCO)c([N+](=O)[O-])c1 | inactive: 35%
80 | CC1=C2N=C(C=C3N=C(C(C)=C4[N-][C@@](C)([C@@H]5N=C1[C@](C)(CCC(=O)NC[C@@H](C)OP(=O)([O-])O[C@H]1[C@@H](O)[C@@H](n6cnc7cc(C)c(C)cc76)O[C@@H]1CO)[C@H]5CC(N)=O)[C@@](C)(CC(N)=O)[C@@H]4CCC(N)=O)[C@@](C)(CC(N)=O)[C@@H]3CCC(N)=O)C(C)(C)[C@@H]2CCC(N)=O.[C-]#N.[Co+3] | active: 95.1%
81 | CCOC(=O)C(CC)C1=NC(C)(C)Cc2ccccc21.O=[N+]([O-])c1cc([N+](=O)[O-])c(O)c([N+](=O)[O-])c1 (configuration not stated) | inactive: 34.4%
82 | CN1CCCCC1COC(=O)C1(O)c2ccccc2CCc2ccccc21 (configuration not stated) | inactive: 15.6%
83 | COc1ccccc1OP(C)(=O)Nc1c(C)cccc1C (configuration not stated) | inactive: -1.8%
84 | COc1ccc(-c2ccccn2)cc1.O=[N+]([O-])c1cc([N+](=O)[O-])c(O)c([N+](=O)[O-])c1 | inactive: 6.2%
85 | CP(=O)(Nc1ccc(SC(F)(F)F)cc1)Oc1ccccc1 (configuration not stated) | inactive: 20%
86 | CCCOc1ccc(NP(C)(=O)Oc2ccc(Cl)cc2)cc1 (configuration not stated) | inactive: 4.7%
87 | O=[N+]([O-])c1cc([N+](=O)[O-])c(-n2nnc3ccccc32)c([N+](=O)[O-])c1 | inactive: 10.4%
88 | CN(Cc1cccnc1)C(=O)COc1ccc(Cl)c(Cl)c1.O=[N+]([O-])c1cc([N+](=O)[O-])c(O)c([N+](=O)[O-])c1 | inactive: 18.8%
89 | O=[N+]([O-])c1cc([N+](=O)[O-])c(-c2cnn(-c3ccccc3)c2)c([N+](=O)[O-])c1 | inactive: 30.3%
90 | Cc1nc2ccc3ccccc3c2s1.O=[N+]([O-])c1cc([N+](=O)[O-])c(O)c([N+](=O)[O-])c1 | inactive: 27%
91 | CCOC(=O)c1ccc(NP(C)(=O)Oc2cc(C)cc(C)c2)cc1 (configuration not stated) | inactive: 6.6%
92 | Cc1cc(C)cc(OP(C)(=O)Nc2ccc(C)cc2C)c1 (configuration not stated) | inactive: 14.5%
93 | Cc1ccc(C)c(NP(C)(=O)Oc2ccccc2)c1 (configuration not stated) | inactive: 6.6%
94 | CP(=O)(Nc1cccc(Br)c1)Oc1ccccc1 (configuration not stated) | inactive: 0.6%
95 | Cc1cc(C)cc(OP(C)(=O)Nc2ccccn2)c1 (configuration not stated) | inactive: -3.8%
96 | O=C(O)c1cccc(Nc2c([N+](=O)[O-])cc([N+](=O)[O-])cc2[N+](=O)[O-])c1 | inactive: 37.2%
97 | CC1=NCCc2c1[nH]c1ccccc21.O=[N+]([O-])c1cc([N+](=O)[O-])c(O)c([N+](=O)[O-])c1 | inactive: -128%
